Source: US11267812B2 (Mirati Therapeutics, Inc., priority 2016, dated 2022)

Molecular target: KRas G12C (Homo sapiens, UniProt P01116, C118S/C51S/C80L/G12C)
Assay: KRas G12C Modification Assay (LCMS detection of covalent adduct)
Assay type: binding
Conditions: 5 μM compound, 3 hours
Description: Usual assay endpoints were 15, 180 and 1440 minutes.

| Compound | POC (normalized percent of control, KRas G12C modification) |
| --- | --- |
| C=CC(=O)N1CCN(c2nc(OC[C@@H]3CCCN3C)nc3c2CCN(c2cc(O)cc4ccccc24)C3)CC1 [Example 127, (S)-1-(4-(7-(3-hydroxynaphthalen-1-yl)-2-((1-methylpyrrolidin-2-yl)methoxy)-5,6,7,8-tetrahydropyrido[3,4-d]pyrimidin-4-yl)piperazin-1-yl)prop-2-en-1-one] | C (“C”>50% POC) |
| C=CC(=O)N1CCN(c2nc(OC[C@H]3CCCN3C)nc3c2CCN(c2cc(O)cc4ccccc24)C3)CC1 [Example 187, (R)-1-(4-(7-(3-hydroxynaphthalen-1-yl)-2-((1-methylpyrrolidin-2-yl)methoxy)-5,6,7,8-tetrahydropyrido[3,4-d]pyrimidin-4-yl)piperazin-1-yl)prop-2-en-1-one] | C (“C”>50% POC) |
| C=CC(=O)N1CCN(c2nc(OC[C@@H]3CCCN3C)nc3c2CCN(c2cccc4ccccc24)C3)CC1 [Example 200, (S)-1-(4-(2-((1-methylpyrrolidin-2-yl)methoxy)-7-(naphthalen-1-yl)-5,6,7,8-tetrahydropyrido[3,4-d]pyrimidin-4-yl)piperazin-1-yl)prop-2-en-1-one] | C (“C”>50% POC) |
